# Laboratory results published in paper PMC8972069 (Nuclear medicine and biology, 2020).
# By UniProt entry, the sequences of proteins in these tests, tags left out. Where a name states a change or a piece, a line headed by the entry shows the natural chain unless it says otherwise.
# UniProt P47752: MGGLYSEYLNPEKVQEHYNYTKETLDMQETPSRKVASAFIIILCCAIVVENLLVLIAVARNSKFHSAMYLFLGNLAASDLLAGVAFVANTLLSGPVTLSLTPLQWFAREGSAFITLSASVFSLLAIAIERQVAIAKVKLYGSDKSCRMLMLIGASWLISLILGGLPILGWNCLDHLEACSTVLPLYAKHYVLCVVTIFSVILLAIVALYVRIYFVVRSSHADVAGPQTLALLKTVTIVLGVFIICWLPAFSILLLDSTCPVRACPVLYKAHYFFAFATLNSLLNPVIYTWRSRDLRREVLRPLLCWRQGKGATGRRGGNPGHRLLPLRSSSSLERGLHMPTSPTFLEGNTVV
# “Also recorded” adds a separate entry of the source.
# Biological target: S1PR2 in rat kidney sections (Rattus norvegicus, UniProt P47752)
# Format: binding, Sprague-Dawely (SD) rats
# Conditions: 10 μM JTE-013, diabetic and control rats
substance,measurement,value
JTE-013,Blocking of [^125I]TZ6544 binding to kidney tissue,could be blocked; also recorded: reduced the binding
